Measurements taken from PubChem BioAssay AID2057 (The Scripps Research Institute Molecular Screening Center, 2009).
The entries are a selection whose mix differs from that of the whole data set. Active and inactive are the calls of the source.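 Rule for the calls: active = inhibition above the mean inhibition of all tested compounds plus 3 SD, set per campaign (cut at about 40% in these data); inactive = the rest.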

Amino acid sequences for entries named in this document (tags omitted).
UniProt Q07820, whole entry: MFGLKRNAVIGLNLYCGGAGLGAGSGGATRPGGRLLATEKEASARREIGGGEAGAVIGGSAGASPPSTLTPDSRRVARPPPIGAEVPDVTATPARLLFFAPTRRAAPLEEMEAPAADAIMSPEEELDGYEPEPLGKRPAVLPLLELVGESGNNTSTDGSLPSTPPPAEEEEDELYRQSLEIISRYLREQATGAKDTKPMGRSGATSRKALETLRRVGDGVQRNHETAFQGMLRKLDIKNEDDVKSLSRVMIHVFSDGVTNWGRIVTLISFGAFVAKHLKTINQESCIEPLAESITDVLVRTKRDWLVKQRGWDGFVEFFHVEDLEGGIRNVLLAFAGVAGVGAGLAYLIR

Each compound was assayed against Induced myeloid leukemia cell differentiation protein Mcl-1 (Homo sapiens) (UniProt Q07820) (assay: inhibitors of MCL1 binding to BIM-BH3, primary screen, biochemical, fluorescence polarization (AID 2057;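 note: 0% = DMSO wells and 100% = unlabeled Bim-BH3 peptide control; higher means more loss of mP so more displacement of Bim peptide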)). Details: GST-MCL1 / FITC-Bim-BH3 fluorescence polarization; at 10.9 µM; stronger effect = higher value.
In the case of CC1=NCCc2c1[nH]c1ccccc21.O=[N+]([O-])c1cc([N+](=O)[O-])c(O)c([N+](=O)[O-])c1, the inhibition is reported as inactive: 5.12%.
For O=C(O)c1cccc(Nc2c([N+](=O)[O-])cc([N+](=O)[O-])cc2[N+](=O)[O-])c1, the inhibition was inactive: 3.52%.
With CP(=O)(Nc1cccc(Br)c1)Oc1ccccc1 (configuration not stated) the inhibition was inactive: 3.86%.
For Cc1cc(C)cc(OP(C)(=O)Nc2ccccn2)c1 (configuration not stated), the inhibition was inactive: 1.2%.
With Cc1ccc(C)c(NP(C)(=O)Oc2ccccc2)c1 (configuration not stated) the inhibition was inactive: 3.81%.
With COc1ccccc1OP(C)(=O)Nc1cccc(Br)c1 (configuration not stated) the inhibition was inactive: -0.96%.
For Cc1cc(C)cc(OP(C)(=O)Nc2ccc(C)cc2C)c1 (configuration not stated), the inhibition was inactive: 2.32%.
For CCOC(=O)c1ccc(NP(C)(=O)Oc2cc(C)cc(C)c2)cc1 (configuration not stated), the inhibition was inactive: 3.32%.
O=[N+]([O-])c1cc([N+](=O)[O-])c(-c2cnn(-c3ccccc3)c2)c([N+](=O)[O-])c1 was tested, and the inhibition was inactive: -3.75%.
Cc1nc2ccc3ccccc3c2s1.O=[N+]([O-])c1cc([N+](=O)[O-])c(O)c([N+](=O)[O-])c1 was tested, and the inhibition was inactive: 4.2%.
For O=[N+]([O-])c1cc([N+](=O)[O-])c(-n2nnc3ccccc32)c([N+](=O)[O-])c1, the inhibition was inactive: 1.68%.
For CN1CCCCC1COC(=O)C1(O)c2ccccc2CCc2ccccc21 (configuration not stated), the inhibition was inactive: 9.4%.
With COc1ccccc1OP(C)(=O)Nc1c(C)cccc1C (configuration not stated) the inhibition was inactive: 4.82%.
For CP(=O)(Nc1ccc(SC(F)(F)F)cc1)Oc1ccccc1 (configuration not stated), the inhibition was inactive: 0.2%.
For CCCOc1ccc(NP(C)(=O)Oc2ccc(Cl)cc2)cc1 (configuration not stated), the inhibition was inactive: -1%.
For O=[N+]([O-])c1cc([N+](=O)[O-])c(Nc2nnnn2CCO)c([N+](=O)[O-])c1, the inhibition was inactive: -2.07%.
With CC1=C2N=C(C=C3N=C(C(C)=C4[N-][C@@](C)([C@@H]5N=C1[C@](C)(CCC(=O)NC[C@@H](C)OP(=O)([O-])O[C@H]1[C@@H](O)[C@@H](n6cnc7cc(C)c(C)cc76)O[C@@H]1CO)[C@H]5CC(N)=O)[C@@](C)(CC(N)=O)[C@@H]4CCC(N)=O)[C@@](C)(CC(N)=O)[C@@H]3CCC(N)=O)C(C)(C)[C@@H]2CCC(N)=O.[C-]#N.[Co+3] the inhibition was inactive: 10.5%.
CCOC(=O)C(CC)C1=NC(C)(C)Cc2ccccc21.O=[N+]([O-])c1cc([N+](=O)[O-])c(O)c([N+](=O)[O-])c1 (configuration not stated) was tested, and the inhibition was inactive: 7.24%.
In the case of CP(=S)(Nn1cnnc1)Oc1ccccc1 (configuration not stated), the inhibition is reported as inactive: -0.68%.
With COc1ccccc1OP(C)(=O)Nc1ccccc1 (configuration not stated) the inhibition was inactive: 5.15%.
With CP(=O)(Nc1ccccc1Br)Oc1ccccc1 (configuration not stated) the inhibition was inactive: 1.49%.
For CCOP(C)(=S)SCC(=O)NC(C)C(=O)O (configuration not stated), the inhibition was inactive: 9.16%.
With O=[N+]([O-])c1cc([N+](=O)[O-])c(O)c([N+](=O)[O-])c1.c1ccc(Oc2ccncc2)cc1 the inhibition was inactive: -3.95%.
In the case of CCOC(=O)c1ccc(NP(C)(=O)Oc2ccc(OC)cc2)cc1 (configuration not stated), the inhibition is reported as inactive: 3.94%.
For CP(=O)(Nc1ccccn1)Oc1ccc(Cl)cc1 (configuration not stated), the inhibition was inactive: -1.25%.
With CP(=O)(Nc1ccc(SC(F)(F)F)cc1)Oc1ccc(Cl)cc1 (configuration not stated) the inhibition was inactive: -1.56%.
In the case of Cc1cccc(C)c1OP(C)(=O)Nc1ccc(SC(F)(F)F)cc1 (configuration not stated), the inhibition is reported as inactive: 6.7%.
CP(=O)(Oc1ccccc1)OC(c1ccccc1)C(F)(F)F (configuration not stated) was tested, and the inhibition was inactive: 2.86%.
With CCc1ccc(OP(C)(=O)N2CCN(c3ccc([N+](=O)[O-])cc3)CC2)cc1 (configuration not stated) the inhibition was inactive: -5.03%.
In the case of CP(=O)(NC(=O)Nc1ccccc1)Oc1ccccc1 (configuration not stated), the inhibition is reported as inactive: 12.2%.
Cc1cc(C)cc(OP(C)(=O)Nc2ccc(SC(F)(F)F)cc2)c1 (configuration not stated) was tested, and the inhibition was inactive: -5.99%.
With CCN(CC)CCCOC(=O)C(O)(c1ccccc1)c1ccccc1 the inhibition was inactive: -6.49%.
With CCOC(=O)c1ccc(NP(C)(=O)Oc2ccccc2)cc1 (configuration not stated) the inhibition was inactive: 0.97%.
With COc1ccccc1OP(C)(=O)Nc1ccc(C)cc1 (configuration not stated) the inhibition was inactive: -2.73%.
With Cc1ccc(NP(C)(=O)Oc2ccccc2)c(C)c1 (configuration not stated) the inhibition was inactive: 1.95%.
With COc1ccccc1OP(C)(=O)Nc1cc(Cl)ccc1C (configuration not stated) the inhibition was inactive: 3.15%.
COc1ccc(OP(C)(=O)Nc2cccc(F)c2)cc1 (configuration not stated) was tested, and the inhibition was inactive: 5.89%.
With Cc1cc(C)cc(OP(C)(N)=O)c1 (configuration not stated) the inhibition was inactive: -0.72%.
For O=[N+]([O-])c1cc([N+](=O)[O-])c(Nc2cccnc2)c([N+](=O)[O-])c1, the inhibition was inactive: 20.4%.
In the case of CC(C)(C)c1ccc(OP(C)(=O)Nc2ccc(SC(F)(F)F)cc2)cc1 (configuration not stated), the inhibition is reported as inactive: -5.92%.
With Cc1cccc(C)c1OP(C)(N)=O (configuration not stated) the inhibition was inactive: -1.99%.
With O=[N+]([O-])c1ccc2c(c1)C=Nc1ccccc1O2 the inhibition was inactive: 4.68%.
Cc1nc2ccc3ccccc3c2o1.O=[N+]([O-])c1cc([N+](=O)[O-])c(O)c([N+](=O)[O-])c1 was tested, and the inhibition was inactive: 0.11%.
For CP(=O)(OCCOc1ccccc1)OCCOc1ccccc1, the inhibition was inactive: 0.41%.
In the case of CP(=O)(Nc1ccc(Cl)cc1Cl)Oc1ccccc1 (configuration not stated), the inhibition is reported as inactive: 2.85%.
For Cc1cc(C)cc(OP(C)(=O)Nc2cccc(C(F)(F)F)c2)c1 (configuration not stated), the inhibition was inactive: -0.96%.
COc1ccc(OP(C)(=O)Nc2ccccc2Br)cc1 (configuration not stated) was tested, and the inhibition was inactive: 5.39%.
In the case of COc1ccccc1OP(C)(=O)Nc1ccc(C)c(C)c1 (configuration not stated), the inhibition is reported as inactive: 3.55%.
O=[N+]([O-])c1cc([N+](=O)[O-])c(Nc2ccccn2)c([N+](=O)[O-])c1 was tested, and the inhibition was inactive: -2.77%.
For Cc1c(NP(C)(=O)Oc2ccc(C(C)C)cc2)c(=O)n(-c2ccccc2)n1C (configuration not stated), the inhibition was inactive: 8.18%.
CCc1ccc(OP(C)(=O)O)cc1 was tested, and the inhibition was inactive: 0.08%.
In the case of CP(=O)(Nc1ccccn1)Oc1ccccc1 (configuration not stated), the inhibition is reported as inactive: 6.52%.
For COc1ccccc1OP(C)(=O)Nc1ccc(C)cc1C (configuration not stated), the inhibition was inactive: 6.31%.
For COc1ccccc1OP(C)(=O)Nc1ccc(Br)cc1 (configuration not stated), the inhibition was inactive: -4.29%.
CN(C)CCOC(=O)C(O)(c1ccccc1)C1CCCC1 (configuration not stated) was tested, and the inhibition was inactive: 5.38%.
COc1ccc(OP(C)(=O)Nc2ccccn2)cc1 (configuration not stated) was tested, and the inhibition was inactive: 6.32%.
In the case of CP(=O)(Nc1ccc(Cl)cc1)Oc1ccc(F)cc1 (configuration not stated), the inhibition is reported as inactive: -5.81%.
